Measured values reported in ChEMBL document CHEMBL1125838, “Conformational restriction of the phenylalanine residue in a cyclic opioid peptide analogue: effects on receptor selectivity and stereospecificity” (J Med Chem, 1991).

Sequences of proteins named here, by UniProt entry; tags and fusion partners are left off.
UniProt P33535, whole entry, looked up: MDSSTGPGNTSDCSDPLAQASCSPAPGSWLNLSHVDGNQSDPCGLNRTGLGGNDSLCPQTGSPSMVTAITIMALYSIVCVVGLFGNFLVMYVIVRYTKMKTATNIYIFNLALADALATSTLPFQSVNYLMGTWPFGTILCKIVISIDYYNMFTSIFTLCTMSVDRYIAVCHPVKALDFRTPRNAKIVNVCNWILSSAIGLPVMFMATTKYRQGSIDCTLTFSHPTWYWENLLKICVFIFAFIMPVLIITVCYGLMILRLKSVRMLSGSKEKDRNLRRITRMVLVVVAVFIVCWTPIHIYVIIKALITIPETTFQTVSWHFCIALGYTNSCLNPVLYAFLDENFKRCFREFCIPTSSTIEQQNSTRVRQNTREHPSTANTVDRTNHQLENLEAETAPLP
UniProt P33533, whole entry, looked up: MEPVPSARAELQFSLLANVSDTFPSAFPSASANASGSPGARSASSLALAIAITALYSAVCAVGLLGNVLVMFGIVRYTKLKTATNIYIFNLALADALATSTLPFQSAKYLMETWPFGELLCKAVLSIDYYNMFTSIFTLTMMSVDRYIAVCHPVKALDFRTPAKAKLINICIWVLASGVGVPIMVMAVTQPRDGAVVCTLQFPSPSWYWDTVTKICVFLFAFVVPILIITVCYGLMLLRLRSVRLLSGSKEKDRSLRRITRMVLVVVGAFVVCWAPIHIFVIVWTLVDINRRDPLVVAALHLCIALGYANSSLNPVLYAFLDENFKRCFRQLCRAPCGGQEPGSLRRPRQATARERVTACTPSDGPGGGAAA

Experiments:
[1] = molecular target: Mu-type opioid receptor (Rattus norvegicus) (UniProt P33535); assay: Potency at opioid receptor mu relative to [Leu5]-enkephalin
[2] = molecular target: Opioid receptors; mu & delta (Rattus norvegicus) (UniProt P33533+P33535); assay: Relative binding affinity for opioid receptors delta and mu (ratio of Ki)
[3] = molecular target: Delta-type opioid receptor (Rattus norvegicus) (UniProt P33533); assay: Relative potency for opioid receptor delta compared to [Leu5]-enkephalin
[4] = Ratio of IC50 value measured in MVD to that of GPI.
[5] = molecular target: Delta-type opioid receptor (Rattus norvegicus) (UniProt P33533); assay: Relative potency towards opioid receptor delta relative to [Leu5]-enkephalin

Compound	Relative potency [1]	Ratio [2]	Relative potency [3]	IC50 ratio [4]	Relative potency [5]
NC(=O)[C@@H]1CCC(=O)NCCC[C@@H](NC(=O)[C@@H](N)Cc2ccc(O)cc2)C(=O)N[C@H](CCc2ccccc2)C(=O)N1	0.0365	10.1	0.000975	2.68	
CN1C(=O)[C@H](NC(=O)[C@@H](N)Cc2ccc(O)cc2)CCCNC(=O)CC[C@@H](C(N)=O)NC(=O)[C@@H]1Cc1ccccc1	0.00941	12.8	0.000198	2.93	
NC(=O)[C@@H]1CCC(=O)NCCC[C@@H](NC(=O)[C@@H](N)Cc2ccc(O)cc2)C(=O)N[C@@]2(CCc3ccccc3C2)C(=O)N1 (single isomer, unassigned)	0.358	133	0.000721	10.8	
CC(C)C[C@@H](NC(=O)[C@@H](Cc1ccccc1)NC(=O)CNC(=O)CNC(=O)[C@H](N)Cc1ccc(O)cc1)C(=O)O			1		
C[C@]1(Cc2ccccc2)NC(=O)[C@H](NC(=O)[C@@H](N)Cc2ccc(O)cc2)CCCNC(=O)CC[C@@H](C(N)=O)NC1=O	1.31	7.62	0.0464	1.66	
NC(=O)[C@@H]1CCC(=O)NCCC[C@@H](NC(=O)[C@@H](N)Cc2ccc(O)cc2)C(=O)N[C@@H](CCc2ccccc2)C(=O)N1	8.04	13.2	0.165	5.89	
Cc1ccccc1C[C@@H]1NC(=O)[C@H](NC(=O)[C@@H](N)Cc2ccc(O)cc2)CCCNC(=O)CC[C@@H](C(N)=O)NC1=O	4.91	4.8	0.275	2.04	
NC(=O)[C@@H]1CCC(=O)NCCC[C@@H](NC(=O)[C@@H](N)Cc2ccc(O)cc2)C(=O)N[C@@H](Cc2ccccc2)C(=O)N1	9.63	3.27	0.79	0.949	
NC(=O)[C@@H]1CCC(=O)NCCC[C@@H](NC(=O)[C@@H](N)Cc2ccc(O)cc2)C(=O)N[C@H](Cc2ccccc2)C(=O)N1	0.00568	8.43	0.000181	4.39	
NC(=O)[C@@H]1CCC(=O)NCCC[C@@H](NC(=O)[C@@H](N)Cc2ccc(O)cc2)C(=O)N2Cc3ccccc3C[C@H]2C(=O)N1	0.00391	20.8	5.05e-05	2.39	
NC(=O)[C@@H]1CCC(=O)NCCC[C@@H](NC(=O)[C@@H](N)Cc2ccc(O)cc2)C(=O)N[C@@H](Cc2ccc3ccccc3c2)C(=O)N1	3.68	19.8	0.05	2.68	
NC(=O)[C@H]1CCC(=O)NCCC[C@H](NC(=O)[C@@H](N)Cc2ccc(O)cc2)C(=O)NC2(Cc3ccccc3C2)C(=O)N1	2.24	49.6		5.06	0.012
NC(=O)[C@@H]1CCC(=O)NCCC[C@@H](NC(=O)[C@@H](N)Cc2ccc(O)cc2)C(=O)N[C@]2(CCc3ccccc3C2)C(=O)N1 (single isomer, unassigned)	1.14	190	0.00161	8.04	
